{"source": "patent US6410590B1", "about": "“Compounds having antitumor activity: process for their preparation and pharmaceutical compositions containing them” (Dr. Reddy's Research Foundation, priority 2000, dated 2002)", "origin": "cited, not measured here", "test_system": "H9 cell", "settings": "cited from earlier work", "data": [{"substance": "Dehydroandrographolide Succinic acid monoester [DASM]", "values": [{"measurement": "concentrations nontoxic to the H9 cell", "result": "50 to 200", "unit": "µg/mL"}]}]}
